{
  "sequences": {"note": "Sequences of proteins named here, by UniProt entry; tags and fusion partners are left off. A change or cut given only in a name is not applied to a line headed by its entry.", "UniProt Q9UNA4": "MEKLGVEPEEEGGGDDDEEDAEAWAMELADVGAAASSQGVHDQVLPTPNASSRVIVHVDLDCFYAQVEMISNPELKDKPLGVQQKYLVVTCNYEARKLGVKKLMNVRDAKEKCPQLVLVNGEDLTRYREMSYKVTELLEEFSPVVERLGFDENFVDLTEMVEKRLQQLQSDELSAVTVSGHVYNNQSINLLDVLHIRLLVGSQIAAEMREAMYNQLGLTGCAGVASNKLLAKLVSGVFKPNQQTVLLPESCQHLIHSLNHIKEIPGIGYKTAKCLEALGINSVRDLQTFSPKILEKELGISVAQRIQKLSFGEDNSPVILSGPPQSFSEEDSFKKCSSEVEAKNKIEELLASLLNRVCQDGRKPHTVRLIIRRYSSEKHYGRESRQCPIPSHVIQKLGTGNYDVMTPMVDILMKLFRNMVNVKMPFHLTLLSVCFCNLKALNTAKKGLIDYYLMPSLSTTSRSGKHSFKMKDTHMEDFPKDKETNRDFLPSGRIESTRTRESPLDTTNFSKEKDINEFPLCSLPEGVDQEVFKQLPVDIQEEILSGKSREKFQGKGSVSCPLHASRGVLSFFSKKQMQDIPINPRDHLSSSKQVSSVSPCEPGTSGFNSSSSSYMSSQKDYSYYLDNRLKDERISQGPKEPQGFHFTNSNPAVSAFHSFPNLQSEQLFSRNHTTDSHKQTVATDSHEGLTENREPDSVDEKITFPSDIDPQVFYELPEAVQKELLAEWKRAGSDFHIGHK"},
  "source": "PubChem BioAssay AID588590",
  "about": "(National Center for Advancing Translational Sciences (NCATS), 2011)",
  "note": "The list shows a part of the results, in another mix than the full data. Inconclusive results are not listed. Calls of active or inactive are those of the source. The call rests on the fitted dose curve; in most records, active means well fitted inhibition curve with a large enough effect; inconclusive means small, poorly fitted or top-dose-only effect, or another doubt; inactive means no such curve, though single readings can be large or run the other way. Potency means the concentration at half of the fitted maximal effect.",
  "data": [
    {"molecular_target": "DNA polymerase iota (Homo sapiens) (UniProt Q9UNA4)", "test": "qHTS for Inhibitors of Polymerase Iota", "settings": "Pol iota fluorescent replication assay, 10 min; series mostly up to 115 µM; activity, negative = inhibition: at the top concentration", "values": [
      {"smiles": "CC(C)CC(=O)NC(Sc1ccc(Cl)cc1)C(Cl)(Cl)Cl", "note": "(stereo not drawn)", "activity, negative = inhibition": "inactive: 11.2%"},
      {"smiles": "O=C(NC(Sc1ccncn1)C(Cl)(Cl)Cl)c1ccccc1", "note": "(stereo not drawn)", "activity, negative = inhibition": "inactive: 29.4%"},
      {"smiles": "O=[N+]([O-])c1cc2c(cc1[N+](=O)[O-])OCO2", "activity, negative = inhibition": "inactive: 16.8%"},
      {"smiles": "NC(=O)c1cc([N+](=O)[O-])cc([N+](=O)[O-])c1N", "activity, negative = inhibition": "inactive: 27.9%"},
      {"smiles": "Cc1ccc(N/C(=N/P(=O)(N2CCOCC2)N2CCOCC2)N2CCOCC2)cc1", "activity, negative = inhibition": "inactive: 29%"},
      {"smiles": "COc1ccccc1OP(=O)(Nc1ccc(C)cn1)Oc1ccccc1OC", "activity, negative = inhibition": "inactive: -10.5%"},
      {"smiles": "Cc1ccc(OP(=O)(Nc2nccs2)Oc2ccc(C)cc2)cc1", "activity, negative = inhibition": "inactive: 144%"},
      {"smiles": "Clc1ccc(Cl)c(NC2=NCC(CBr)S2)c1", "note": "(stereo not drawn)", "activity, negative = inhibition": "inactive: 45.7%"},
      {"smiles": "CN1CCCC(OC(=O)C(c2ccccc2)c2ccccc2)C1", "note": "(stereo not drawn)", "activity, negative = inhibition": "inactive: 19.7%"},
      {"smiles": "Nc1c(O)cc([N+](=O)[O-])cc1[N+](=O)[O-]", "activity, negative = inhibition": "inactive: 9.91%"},
      {"smiles": "CCN(N=Nc1nonc1N)c1nonc1N", "activity, negative = inhibition": "inactive: 174%"},
      {"smiles": "CC(=O)Nc1ccc([As](=O)(O)O)cc1", "activity, negative = inhibition": "inactive: 35.5%"},
      {"smiles": "CCCC1OP(N)(=O)OCC1CC", "note": "(stereo not drawn)", "activity, negative = inhibition": "inactive: -8.99%"},
      {"smiles": "O=P(Nc1nc2ccc(Cl)cc2s1)(c1ccccc1)c1ccccc1", "activity, negative = inhibition": "inactive: 44.5%"},
      {"smiles": "CCOP(=O)(Nc1ccccc1)OCC", "activity, negative = inhibition": "inactive: -0.529%"},
      {"smiles": "Cc1cc(SC(NC(=O)c2ccc(F)cc2)C(Cl)(Cl)Cl)ncn1", "note": "(stereo not drawn)", "activity, negative = inhibition": "inactive: 11%"},
      {"smiles": "Cc1ccc(NP(=O)(Oc2ccccc2F)Oc2ccccc2F)nc1", "activity, negative = inhibition": "inactive: -10.2%"},
      {"smiles": "CN(C(=O)Cc1ccc(Cl)c(Cl)c1)[C@H]1CCCC[C@@H]1N1CCCC1", "activity, negative = inhibition": "inactive: 14.8% [at 58.9 µM]"},
      {"smiles": "CC(C)(C)C(=O)NC(Sc1ccncn1)C(Cl)(Cl)Cl", "note": "(stereo not drawn)", "activity, negative = inhibition": "inactive: 15.1%"},
      {"smiles": "Cn1c(=O)[nH]c(=O)c2c1nc(Br)n2Cc1ccccc1", "activity, negative = inhibition": "inactive: 135%"},
      {"smiles": "O=[N+]([O-])c1ncn(CCn2ncnc2[N+](=O)[O-])n1", "activity, negative = inhibition": "inactive: 8.39%"},
      {"smiles": "O=[N+]([O-])c1cccc(NC2=NCC(CBr)S2)c1", "note": "(stereo not drawn)", "activity, negative = inhibition": "inactive: 33.1%"},
      {"smiles": "COC(=O)C1(C)COP(=O)(Nc2ccccc2)OC1", "note": "(stereo not drawn)", "activity, negative = inhibition": "inactive: 12.9%"},
      {"smiles": "O=C(O)CNc1ccc([As](=O)(O)O)cc1", "activity, negative = inhibition": "inactive: -9.39%"},
      {"smiles": "Cc1cc(C=O)ccc1N(CCCl)CCCl", "activity, negative = inhibition": "inactive: -23.8%"},
      {"smiles": "O=P1(N(CCCl)CCCl)OCCCS1", "note": "(stereo not drawn)", "activity, negative = inhibition": "inactive: 13.3%"},
      {"smiles": "O=C(Nc1cc([As](=O)(O)O)ccc1O)c1ccccc1", "activity, negative = inhibition": "inactive: -13.4%"},
      {"smiles": "Nc1ccc([As](=O)(O)c2ccc(N)cc2)cc1", "activity, negative = inhibition": "inactive: 153%"},
      {"smiles": "CCN(/C(=N/P(=O)(N1CCOCC1)N1CCOCC1)N1CCOCC1)c1ccc(OC)cc1", "activity, negative = inhibition": "inactive: 86.7%"},
      {"smiles": "CC(C)=N/N=C(\\N)N[N+](=O)[O-]", "activity, negative = inhibition": "inactive: 68.4%"},
      {"smiles": "COc1cc([N+](=O)[O-])c([N+](=O)[O-])cc1OC", "activity, negative = inhibition": "inactive: 6.07%"},
      {"smiles": "CN(C)C(=O)OCCc1n(C)cc[n+]1C", "activity, negative = inhibition": "inactive: 19.1%"},
      {"smiles": "CC1CCN(C(=O)Oc2c(Cl)cc(Cl)c3cccnc23)CC1", "activity, negative = inhibition": "inactive: 18.5%"},
      {"smiles": "COc1ccc(C2=NCC(CBr)S2)cc1", "note": "(stereo not drawn)", "activity, negative = inhibition": "inactive: 134%"},
      {"smiles": "O=[N+]([O-])c1cccc2n[nH]nc12", "activity, negative = inhibition": "inactive: -3.43%"},
      {"smiles": "CC(=O)N1C2C3N(C(C)=O)C1C1N(C(C)=O)C(C(N1C(C)=O)N3C(C)=O)N2C(C)=O", "activity, negative = inhibition": "inactive: 12.6%"},
      {"smiles": "Cc1ccc(NP(=O)(Oc2ccccc2)Oc2ccccc2)nc1", "activity, negative = inhibition": "inactive: 6.75%"},
      {"smiles": "CCc1nc2c(n1)c1c(non1O)c1c2no[n+]1[O-]", "Potency": "active: 10 µM"}
    ]}
  ]
}
